# This is one part of the list.
# System: A. baumannii ATCC 17978
# Test: relative growth (fraction of control); higher = less inhibition
# Settings: 50 µM
row,SMILES,relative growth
1,O=C(C[C@@H]1CC[C@H]2[C@@H](COC[C@@H](O)CN2C(=O)c2ccc3c(c2)OCO3)O1)NCCN1CCCCC1,1.03
2,COCCOC(=O)N1C(=O)[C@@]2(c3cc(C#CCC(C(=O)OC)C(=O)OC)ccc31)[C@H](C(=O)N1CCc3cc(OC)c(OC)cc3C1)[C@H]1C(=O)O[C@H](c3ccccc3)[C@H](c3ccccc3)N1[C@@H]2c1ccccc1OCCO,1.18
3,O=C(c1ccccc1O)N1CCOCC1,0.902
4,Cc1cccc(C(=O)NN)c1,0.943
5,CN1CCN(C(=O)C[C@@H]2C=C[C@H](NC(=O)c3ccc4c(c3)OCO4)[C@@H](CO)O2)CC1,0.99
6,Cc1cc(C)c(S(=O)(=O)N2CCO[C@@H]2CNC(=O)C(=O)NCCCN2CCCC2=O)c(C)c1,0.937
7,CCOC(=O)c1ncn2c1C(=O)OC2(C)C,1.03
8,COCCNC(=O)C[C@@H]1C[C@@H]2c3cc(NC(=O)COC)ccc3O[C@@H]2[C@H](CO)O1,0.966
9,C[C@@]1(C2CC2)NC(=O)NC1=O,1.12
10,C[C@H]1CN([C@@H](C)CO)S(=O)(=O)c2ccc(C#Cc3ccccn3)cc2O[C@@H]1CN(C)Cc1ccccc1,1.01
11,CN(C)Cc1cn(CC[C@H]2CC[C@H](N)[C@@H](CO)O2)nn1,0.983
12,CO[C@@H]1CN(C)C(=O)c2cc(NC(=O)Nc3ccccc3F)ccc2OC[C@@H](C)N(Cc2ccccc2C(=O)O)C[C@@H]1C,1.13
13,COCc1cc(C)[nH]c(=O)c1C#N,0.949
14,CCOC(=O)Cn1cccc2oc(=O)nc1-2,0.97
15,CCCC1O[C@@H]2C[C@H]3[C@@H]4CCC5=CC(=O)C=C[C@]5(C)[C@H]4[C@@H](O)C[C@]3(C)[C@]2(C(=O)CO)O1 (stereo not given in full),1.02
16,CCN(CC)CCCC(C)Nc1ccnc2cc(Cl)ccc12.O=P(O)(O)O.O=P(O)(O)O (stereo not given),1.15
17,C[C@H](O)C1=C[C@]2(CC[C@@H]3C(C(=O)O)=CO[C@@H](O[C@@H]4O[C@H](CO)[C@@H](O)[C@H](O)[C@H]4O)[C@@H]32)OC1=O,1.09
18,CO[C@H]1CN(C)C(=O)c2ccc(NS(=O)(=O)CC(F)(F)F)cc2OC[C@H](C)N(C(=O)NC(C)C)C[C@H]1C,0.923
19,Nc1ccc(/C=C/c2ccccc2)cc1,1.01
20,O=C(C[C@H]1CC[C@H]2[C@@H](COC[C@@H](O)CN2S(=O)(=O)c2ccccc2F)O1)NCc1ccccc1F,1.09
21,C[C@@H]1O[C@H](O[C@@H]2[C@H](Oc3c(-c4ccc(O)cc4)oc4cc(O)cc(O)c4c3=O)O[C@H](CO[C@@H]3O[C@H](C)[C@@H](O)[C@H](O)[C@@H]3O)[C@@H](O)[C@@H]2O)[C@@H](O)[C@H](O)[C@@H]1O,1.02
22,CN(C)CCCNC(=O)C[C@@H]1C=C[C@H](NC(=O)Cc2cccnc2)[C@H](CO)O1,0.909

row,SMILES,relative growth
1,COC[C@H]1CNN1C(=O)c1cc(C)oc1C,0.89
2,COc1ccc2oc(C(C)=O)cc2c1,0.88
3,Cn1nccc1C(=O)NCCN,0.927
4,O=NN(CCCl)C(=O)NCCCl,1.02
5,NCC[C@@H]1CC[C@H](NC(=O)C2CCCC2)[C@H](CO)O1,1.05
6,CCOC(=O)c1ncn2c1CN(C)C(=O)c1cc(F)ccc1-2,0.936
7,CO[C@H]1CN(C)C(=O)c2cc(NS(=O)(=O)CC(F)(F)F)ccc2OC[C@H](C)N(Cc2ccccn2)C[C@@H]1C,0.971
8,COc1cc(/C=C/c2ccc(O)cc2)cc(OC)c1,0.533
9,C[C@@]1(c2cccs2)CC(c2cccs2)=Nc2ccccc2N1,0.908
10,CC1=C(/C=C/C(C)=C/C=C/C(C)=C/C=C/C=C(C)/C=C/C=C(C)/C=C/C2=C(C)C(=O)CCC2(C)C)C(C)(C)CCC1=O [CANTHAXANTHIN (euglenanone)],0.905
11,CN(C)CC(=O)N[C@@H]1CC[C@@H](CCNC(=O)C2CC2)O[C@@H]1CO,0.917
12,C[C@@H]1CC[C@]2(C)C(C=O)=CCC[C@H]2[C@@]1(C)CC1OC(O)C(=O)[C@]12CO2 (stereo not given in full),0.147
13,CC(=O)[C@H]1CCC2C3C[C@H](C)C4=CC(=O)CC[C@]4(C)C3[C@@H](O)C[C@@]21C (stereo not given in full),0.894
14,CCOC(=O)c1c(NC(C)=O)no[n+]1[O-],1.08
15,Cc1ccc(S(=O)(=O)N2C[C@@H](O)COC[C@H]3O[C@@H](CC(=O)N[C@@H]4CCN(Cc5ccccc5)C4)CC[C@@H]32)cc1,1.01
16,CCN(CCCCOC(=O)c1ccc(OC)c(OC)c1)C(C)Cc1ccc(OC)cc1.Cl (stereo not given),1.21
17,N#C[C@@H]1C[C@@H]2C[C@@H]2N1C(=O)[C@@H](N)[C@]12CC3CC(C[C@@](O)(C3)C1)C2,1.16
18,Cl.NCCCC[C@H](N)C(=O)O,1.02
19,C=c1ccc(S(=O)(=O)NC[C@@H](C)O)cc1=C1NN=C2c3ccccc3C(C)=NN21,1.24
20,COc1ccc(S(=O)(=O)N[C@@H]2CC[C@H](CC(=O)N3CCC(Cc4ccccc4)CC3)O[C@H]2CO)cc1,0.907
21,NCCCc1nc2c(s1)CCCC2,0.989
22,O=C(C[C@H]1NC(=O)NC1=O)Nc1ccccc1,1.09

row,SMILES,relative growth
1,COc1cc2nc(N3CCN(C(=O)C4CCCO4)CC3)nc(N)c2cc1OC.Cl (stereo not given),1.06
2,O=C(C[C@@H]1C=C[C@@H](NC(=O)CN2CCOCC2)[C@H](CO)O1)NCCc1ccccc1,0.96
3,COCC(=O)N(C)C[C@H]1Oc2cc(-c3ccc(OC)cc3)ccc2S(=O)(=O)N([C@H](C)CO)C[C@@H]1C,1.04
4,CS(=O)(=O)c1ccccc1CC(=O)O,1.01
5,CCCNC(=O)N(C)C[C@@H]1Oc2cc(C#Cc3cccc(F)c3)ccc2S(=O)(=O)N([C@H](C)CO)C[C@H]1C,0.869
6,Cc1ccccc1S(=O)(=O)N1C[C@H](O)COC[C@@H]2O[C@@H](CC(=O)NCc3ccccc3Cl)CC[C@H]21,0.977
7,Clc1ccc(/C=C/C2=Nc3cccc4cccc(c34)N2)cc1,1.1
8,CNC(=S)NCc1ccco1,0.969
9,COC[C@H]1CN(C(=O)c2cscn2)N1C,1.09
10,COc1ccc2cc3[n+](cc2c1OC)CCc1cc2c(cc1-3)OCO2.[Cl-],0.943
11,CC(=O)N(C)C[C@H]1Oc2ncc(C#CC(C)(C)O)cc2C(=O)N([C@H](C)CO)C[C@@H]1C,1.05
12,Cc1ccc(N(c2ccc(C)cc2)c2cccnc2)cc1,0.866
13,COc1cccc(NC(=O)N[C@H]2C=C[C@@H](CC(=O)N3CCOCC3)O[C@@H]2CO)c1,1.1
14,COCCNC(=O)C[C@H]1CC[C@@H]2[C@H](COC[C@H](O)CN2S(=O)(=O)c2ccccc2C)O1,0.99
15,c1ccc(C2=Nc3ccccc3N=C(c3ccccc3)C2)cc1,1.05
16,OC[C@@H]1CN(CCN2CCOCC2)C[C@H](n2cnc3c(NC4CCC4)ncnc32)O1,1.04
17,CCc1cccc(C)c1NC(C)=O,1.06
18,Cc1occc(=O)c1O,0.903
19,O=C(Nc1ccccc1)c1ccccc1,0.84
20,COc1ccc2[nH]c(=O)[nH]c(=O)c2c1,0.841
21,CO[C@H]1CN(C)C(=O)c2ccc(NS(=O)(=O)c3ccccc3)cc2OC[C@@H](C)N(C(=O)NC(C)C)C[C@@H]1C,1.06
22,O=C(CCC1=NS(=O)(=O)c2cc(Br)cnc2N1)N1CCOCC1,0.996

row,SMILES,relative growth
1,COc1cccc(NC(=O)N(C)C[C@@H]2Oc3cc(C#CC4(O)CCCC4)ccc3S(=O)(=O)N([C@@H](C)CO)C[C@@H]2C)c1,1.12
2,COCC(=O)N(C)C[C@H]1Oc2cc(C#Cc3cccnc3)ccc2S(=O)(=O)N([C@H](C)CO)C[C@H]1C,0.981
3,CCC(=O)N[C@@H]1CC[C@H](CC(=O)OC)O[C@H]1CO,0.977
4,C[C@@H]1CN([C@H](C)CO)S(=O)(=O)c2ccc(C#C[C@@H](C)O)cc2O[C@@H]1CN(C)C(=O)c1ccccc1,0.96
5,CCOc1cc(CC(=O)N[C@@H](CC(C)C)c2ccccc2N2CCCCC2)ccc1C(=O)O,0.984
6,NC(=O)[C@H]1[C@@H]2C(=O)O[C@@H](c3ccccc3)[C@@H](c3ccccc3)N2[C@@H](c2ccc(O)cc2)[C@]12C(=O)Nc1ccc(C#CC3(O)CCCCCC3)cc12,1.02
7,CNC(=O)C[C@H]1Nc2ccccc2NC1=O,1.03
8,C[C@@H]1CN([C@@H](C)CO)S(=O)(=O)c2ccc(C#CCN(C)C)cc2O[C@H]1CN(C)S(=O)(=O)c1cccc(F)c1,1.1
9,COc1ccc(C(=O)c2ccccc2)c(O)c1,0.992
10,COC(=O)c1c(CC[C@@H](CO)NC(=O)N[C@@H](Cc2ccccc2)Cn2cc(C3(O)CCCCC3)nn2)oc(C(C)=O)c1C(=O)OC,0.841
11,O=C(C[C@H]1C=C[C@@H](NC(=O)c2cccc(F)c2)[C@H](CO)O1)NCCN1CCCC1,1.04
12,COc1ccc(S(=O)(=O)N[C@H]2C=C[C@H](CC(=O)N3CCN(c4ccccc4)CC3)O[C@@H]2CO)cc1,1.04
13,C[C@H](CO)N1C[C@H](C)[C@H](CN(C)C(=O)c2ccc3c(c2)OCO3)Oc2cc(C#Cc3ccccc3F)ccc2S1(=O)=O,1.05
14,COc1ncnc(NS(=O)(=O)c2ccc(N)cc2)c1OC,1.03
15,C#CCCCCCCCCCCCC(O)CC(O)COC(C)=O (stereo not given),0.789
16,O=C(O)CSCC(=O)N1CCCCC1,0.897
17,CSCC[C@H]1NC(=O)NC1=O,1.01
18,CN[C@@H]1C(OC2[C@H](O[C@H]3[C@H](O)[C@@H](O)[C@H](NC(=N)N)[C@@H](O)[C@@H]3NC(=N)N)OC(C)[C@]2(O)CO)OC(CO)C(O)C1O.O=S(=O)(O)O (stereo not given in full),0.895
19,CCC(C)[C@H]1O[C@]2(C=C[C@@H]1C)C[C@@H]1C[C@@H](C/C=C(\C)[C@@H](OC3C[C@H](OC)C(O[C@H]4C[C@H](OC)[C@@H](O)[C@H](C)O4)[C@H](C)O3)[C@@H](C)/C=C/C=C3\CO[C@@H]4[C@H](OC)C(C)=C[C@@H](C(=O)O1)[C@]34O)O2 (stereo not given in full),1.04
